Results: PubChem BioAssay (NCI)
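All cell lines were grown in 96-well plates and treated with compound for 48 hours. GI50 marks 50% less growth. TGI: total growth inhibition.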

How the values were obtained:
Test in all cases: NCI anticancer screen, dose series, 48 h
[1] = system: ACHN renal
[2] = system: NCI/ADR-RES ovarian
[3] = system: HS 578T breast
[4] = system: KM12 colon
[5] = system: SF-295 CNS
[6] = system: COLO 205 colon
[7] = system: SK-MEL-2 melanoma
[8] = system: HCT-15 colon
[9] = system: RPMI-8226 leukemia
[10] = system: SW-620 colon
[11] = system: MDA-MB-231 breast
[12] = system: LOX IMVI melanoma
[13] = system: BT-549 breast
[14] = system: SK-OV-3 ovarian
[15] = system: U251 CNS
[16] = system: PC-3 prostate
[17] = system: SK-MEL-5 melanoma
[18] = system: RXF 393 renal
[19] = system: HCT-116 colon
[20] = system: NCI-H23 lung
[21] = system: NCI-H522 lung
[22] = system: T-47D breast
[23] = system: SNB-19 CNS
[24] = system: K-562 leukemia
[25] = system: OVCAR-5 ovarian
[26] = system: 786-0 renal
[27] = system: CCRF-CEM leukemia
[28] = system: NCI-H322M lung
[29] = system: HT29 colon
[30] = system: SR leukemia
[31] = system: SF-268 CNS
[32] = system: OVCAR-4 ovarian
[33] = system: OVCAR-3 ovarian
[34] = system: A498 renal
[35] = system: UO-31 renal
[36] = system: MALME-3M melanoma
[37] = system: CAKI-1 renal
[38] = system: MDA-MB-435
[39] = system: M14 melanoma
[40] = system: HOP-92 NSCLC
[41] = system: SN12C renal
[42] = system: MOLT-4 leukemia
[43] = system: TK-10 renal
[44] = system: UACC-257 melanoma
[45] = system: A549 NSCLC
[46] = system: HCC-2998 colon
[47] = system: HOP-62 NSCLC
[48] = system: EKVX NSCLC
[49] = system: SNB-75 CNS
[50] = system: HL-60(TB) leukemia
[51] = system: NCI-H460 lung
[52] = system: OVCAR-8 ovarian
[53] = system: DU-145 prostate
[54] = system: SK-MEL-28 melanoma
[55] = system: UACC-62 melanoma
[56] = system: SF-539 CNS
[57] = system: MDA-N
[58] = system: IGROV1 ovarian
[59] = system: MCF7 breast

## C/C=C(\F)P(=O)(OCC)OCC
[1]
  GI50: > 100 µM
  TGI: > 100 µM
[2]
  GI50: > 100 µM
  TGI: > 100 µM
[3]
  GI50: > 100 µM
  TGI: > 100 µM
[4]
  GI50: > 100 µM
  TGI: > 100 µM
[5]
  GI50: > 100 µM
  TGI: > 100 µM
[6]
  GI50: > 100 µM
  TGI: > 100 µM
[7]
  GI50: > 100 µM
  TGI: > 100 µM
[8]
  GI50: > 100 µM
  TGI: > 100 µM
[9]
  GI50: > 100 µM
  TGI: > 100 µM
[10]
  GI50: > 100 µM
  TGI: > 100 µM
[11]
  GI50: > 100 µM
  TGI: > 100 µM
[12]
  GI50: > 100 µM
  TGI: > 100 µM
[13]
  GI50: > 100 µM
  TGI: > 100 µM
[14]
  GI50: > 100 µM
  TGI: > 100 µM
[15]
  GI50: > 100 µM
  TGI: > 100 µM
[16]
  GI50: > 100 µM
  TGI: > 100 µM
[17]
  GI50: > 100 µM
  TGI: > 100 µM
[18]
  GI50: > 100 µM
  TGI: > 100 µM
[19]
  GI50: > 100 µM
  TGI: > 100 µM
[20]
  GI50: > 100 µM
  TGI: > 100 µM
[21]
  GI50: > 100 µM
  TGI: > 100 µM
[22]
  GI50: > 100 µM
  TGI: > 100 µM
[23]
  GI50: > 100 µM
  TGI: > 100 µM
[24]
  GI50: > 100 µM
  TGI: > 100 µM
[25]
  GI50: > 100 µM
  TGI: > 100 µM
[26]
  GI50: > 100 µM
  TGI: > 100 µM
[27]
  GI50: > 100 µM
  TGI: > 100 µM
[28]
  GI50: > 100 µM
  TGI: > 100 µM
[29]
  GI50: > 100 µM
  TGI: > 100 µM
[30]
  GI50: > 100 µM
  TGI: > 100 µM
[31]
  GI50: > 100 µM
  TGI: > 100 µM
[32]
  GI50: > 100 µM
  TGI: > 100 µM
[33]
  GI50: > 100 µM
  TGI: > 100 µM
[34]
  GI50: > 100 µM
  TGI: > 100 µM
[35]
  GI50: > 100 µM
  TGI: > 100 µM
[36]
  GI50: > 100 µM
  TGI: > 100 µM
[37]
  GI50: > 100 µM
  TGI: > 100 µM
[38]
  GI50: > 100 µM
  TGI: > 100 µM
[39]
  GI50: > 100 µM
  TGI: > 100 µM
[40]
  GI50: > 100 µM
  TGI: > 100 µM
[41]
  GI50: > 100 µM
  TGI: > 100 µM
[42]
  GI50: > 100 µM
  TGI: > 100 µM
[43]
  GI50: > 100 µM
  TGI: > 100 µM
[44]
  GI50: > 100 µM
  TGI: > 100 µM
[45]
  GI50: > 100 µM
  TGI: > 100 µM
[46]
  GI50: > 100 µM
  TGI: > 100 µM
[47]
  GI50: > 100 µM
  TGI: > 100 µM
[48]
  GI50: > 100 µM
  TGI: > 100 µM
[49]
  GI50: > 100 µM
  TGI: > 100 µM
[50]
  GI50: > 100 µM
  TGI: > 100 µM
[51]
  GI50: > 100 µM
  TGI: > 100 µM
[52]
  GI50: > 100 µM
  TGI: > 100 µM
[53]
  GI50: > 100 µM
  TGI: > 100 µM
[54]
  GI50: > 100 µM
  TGI: > 100 µM
[55]
  GI50: > 100 µM
  TGI: > 100 µM
[56]
  GI50: > 100 µM
  TGI: > 100 µM
[57]
  GI50: > 100 µM
  TGI: > 100 µM
[58]
  GI50: > 100 µM
  TGI: > 100 µM
[59]
  GI50: > 100 µM
  TGI: > 100 µM
